Laboratory results from paper PMC7950132 (Molecular & Cellular Proteomics : MCP, 2021).

Molecular target: T1, ELOB/C-CUL5(NEDD8)-RBX2 (human | mouse, UniProt Q15370 1-118; Q15369 17-112; Q93034 1-780; Q9WTZ1 1-113; Q15843 1-76, NEDD8 attached at K724)
T1 construct: elongin B, human, full-length; elongin C, human, residues 17-112; cullin 5, human; ring box protein 2 (RBX2), mouse; NEDD8, human, conjugated to CUL5; NEDD8 is covalently linked to CUL5 K724; Ni-NTA capture came before the cleavage; also called neddylated CUL5 complex; neddylated CRL; source: E. coli BL21, CUL5/RBX2/ELOB/C coexpressed, neddylated in mixed lysates, purified (Ni-NTA, SEC); not …
Test: SEC; ARIH2 mixed with an equimolar amount of ELOB/C-CUL5(NEDD8)-RBX2 or ELOB/C-CUL5-RBX2, separated by size exclusion; fractions on SDS-PAGE
Settings: both partners purified

B1: Ariadne RBR E3 ubiquitin protein ligase 2 (ARIH2) (enzyme, human, UniProt O95376 1-493, looked up)
chain: MSVDMNSQGSDSNEEDYDPNCEEEEEEEEDDPGDIEDYYVGVASDVEQQGADAFDPEEYQFTCLTYKESEGALNEHMTSLASVLKVSHSVAKLILVNFHWQVSEILDRYKSNSAQLLVEARVQPNPSKHVPTSHPPHHCAVCMQFVRKENLLSLACQHQFCRSCWEQHCSVLVKDGVGVGVSCMAQDCPLRTPEDFVFPLLPNEELREKYRRYLFRDYVESHYQLQLCPGADCPMVIRVQEPRARRVQCNRCNEVFCFKCRQMYHAPTDCATIRKWLTKCADDSETANYISAHTKDCPKCNICIEKNGGCNHMQCSKCKHDFCWMCLGDWKTHGSEYYECSRYKENPDIVNQSQQAQAREALKKYLFYFERWENHNKSLQLEAQTYQRIHEKIQERVMNNLGTWIDWQYLQNAAKLLAKCRYTLQYTYPYAYYMESGPRKKLFEYQQAQLEAEIENLSWKVERADSYDRGDLENQMHIAEQRRRTLLKDFHDT
notes: ARIH2, human, codon-optimised synthetic gene; also called ARIH2 RBRL; source: E. coli BL21, purified (Ni-NTA, SEC); not shown: His6, N-terminal, cleaved; MBP, N-terminal, cleaved
- binding result: binds
